The record followed here is ChEMBL document CHEMBL1124192, “Cyclopentenylcytosine. A carbocyclic nucleoside with antitumor and antiviral properties” (J Med Chem, 1988).

A short description of the data set: Ratio of minimum drug concentration to ID50 of the compound ([…] strain). It is filed as ADME. To be noted: read-out: Therapeutic index.

Consider `NC(=O)c1ncn([C@@H]2O[C@H](CO)[C@@H](O)[C@H]2O)n1` [RIBAVIRIN], for which the selectivity ratio worked out at 1.1.
